Consider one compound from ChEMBL document CHEMBL5214989, “Overcoming Preclinical Safety Obstacles to Discover (S)-N-((1,2,3,5,6,7-Hexahydro-s-indacen-4-yl)carbamoyl)-6-(methylamino)-6,7-dihydro-5H-pyrazolo[5,1-b][1,3]oxazine-3-sulfonamide (GDC-2394): A Potent and Selective NLRP3 Inhibitor” (J Med Chem, 2022).

Each structure is given as a SMILES string. Activity calls are given as the source filed them. The rule behind the calls is not given here.

The subject of the experiment is Rattus norvegicus. As to the kind of experiment: Anti-allodynic activity in MSU-induced Wistar rat gouty arthritis model assessed as mechanical allodynia at 0.5 mg/kg, iv administered once daily for 7 days and measured on day 2. Particulars: time 7.0 day. It counts as functional, organism-based.

As for `COc1cc2c(c(OC)c1OC)-c1ccc(OC)c(=O)cc1[C@@H](NC(C)=O)CC2`, the result was Active.
